PubChem BioAssay AID1597 (NINDS Approved Drug Screening Program, 2009)
pEC50: −log10 of the molar value. Results filed as inconclusive are left out.

System: Drosophila SCA1 polyglutamine model, toxicity suppression
Assay: Reduction of SCA1 polyglutamine toxicity, EC50 from dose response in whole drosophila (AID 1597)

CN(CCCl)CCCl
pEC50: 5.60
